We go through 4 compounds from ChEMBL document CHEMBL4041499, “Synthesis and evaluation of 7-substituted coumarin derivatives as multimodal monoamine oxidase-B and cholinesterase inhibitors for the treatment of Alzheimer's disease” (Eur J Med Chem, 2017).

Chains of the proteins cited; added tags and fusions are not shown.
UniProt P27338, whole entry: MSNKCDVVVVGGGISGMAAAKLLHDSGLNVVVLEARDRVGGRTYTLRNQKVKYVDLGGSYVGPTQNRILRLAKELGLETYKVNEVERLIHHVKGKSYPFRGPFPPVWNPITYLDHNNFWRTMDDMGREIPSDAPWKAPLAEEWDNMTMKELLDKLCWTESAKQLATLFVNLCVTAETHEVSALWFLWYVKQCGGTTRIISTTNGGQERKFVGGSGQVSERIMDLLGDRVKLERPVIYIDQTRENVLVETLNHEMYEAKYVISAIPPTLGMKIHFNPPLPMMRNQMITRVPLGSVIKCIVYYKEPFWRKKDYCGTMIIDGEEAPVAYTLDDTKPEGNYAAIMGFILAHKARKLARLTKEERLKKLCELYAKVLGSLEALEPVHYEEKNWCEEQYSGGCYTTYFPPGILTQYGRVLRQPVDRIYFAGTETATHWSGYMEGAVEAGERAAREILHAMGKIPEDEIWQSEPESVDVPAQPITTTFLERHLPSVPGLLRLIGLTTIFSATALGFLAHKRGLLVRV

Broadly, the IC50 is the point on the concentration scale where inhibition reaches its midpoint. Higher therefore signals a need for much substance.

The target in the test is Amine oxidase [flavin-containing] B (Homo sapiens, UniProt P27338).
In turn, `Cc1cc(=O)oc2cc(OCCN3CCCCC3)ccc12` yielded a half-inhibitory concentration (IC50) of 3090 nM. This counts as single-digit micromolar. For the compound `Cc1cc(=O)oc2cc(OCc3ccc(Br)cc3)ccc12`, half-maximal inhibition (IC50) required 0.9 nM. As for `O=c1ccc2ccc(OCCN3CCC(Cc4ccccc4)CC3)cc2o1`, the IC50 is 470 nM. Take `Cc1cc(=O)oc2cc(OCCN3CCC(Cc4ccccc4)CC3)ccc12`: the IC50 was determined as 530 nM. This IC50 and that of the compound before are within 1.5-fold of each other.
